Results as given in PMC3124622 (Biochemical and biophysical research communications, 2011).

Tests used:
[1] = target: E. coli TGT Wild-Type (Escherichia coli, UniProt P0A847); experiment: Pteridine inhibition of guanine incorporation; assay type: biochemical; details: wild-type enzyme; KI was above the biopterin solubility limit
[2] = Solubility limit of biopterin; assay type: physicochemical; details: in TGT inhibition assay
[3] = target: E. coli TGT C145V/T146V/P147N/V217G (Escherichia coli, UniProt P0A847, C145V/P147N/T146V/V217G); experiment: Pteridine inhibition of guanine incorporation; assay type: biochemical; details: C145V/T146V/P147N/V217G (quadruple) mutant; vs guanine; 20 μM tRNA, pH 7.3
[4] = target: E. coli TGT C145V/T146V (Escherichia coli, UniProt P0A847, C145V/T146V); experiment: Pteridine inhibition of guanine incorporation; assay type: biochemical; details: C145V/T146V mutant; vs guanine; 20 μM tRNA, pH 7.3
[5] = target: E. coli TGT C145V/T146V/V217G (Escherichia coli, UniProt P0A847, C145V/T146V/V217G); experiment: Pteridine inhibition of guanine incorporation; assay type: biochemical; details: C145V/T146V/V217G (triple) mutant; vs guanine; 20 μM tRNA, pH 7.3
[6] = target: E. coli TGT V217G (Escherichia coli, UniProt P0A847, V217G); experiment: Pteridine inhibition of guanine incorporation; assay type: biochemical; details: V217G mutant; vs guanine; 20 μM tRNA, pH 7.3

In the case of biopterin, the Ki [1] is reported as greater than 3000 µM, the “maximum concentration dictated by solubility” value [2] is reported as 3000 µM and the Ki [3] is reported as 1050 µM. The Ki [4] was 550 µM, the Ki [5] was 160 µM and the Ki [6] was 550 µM.
